Reference: US20240150290A1, “HETEROCYCLIC P2Y14 RECEPTOR ANTAGONISTS” (priority 2021, published 2024)

The chains behind the UniProt entries cited, without tags or fusion partners. Where a name states a change or a piece, a line headed by the entry shows the natural chain unless it says otherwise.
UniProt Q12809: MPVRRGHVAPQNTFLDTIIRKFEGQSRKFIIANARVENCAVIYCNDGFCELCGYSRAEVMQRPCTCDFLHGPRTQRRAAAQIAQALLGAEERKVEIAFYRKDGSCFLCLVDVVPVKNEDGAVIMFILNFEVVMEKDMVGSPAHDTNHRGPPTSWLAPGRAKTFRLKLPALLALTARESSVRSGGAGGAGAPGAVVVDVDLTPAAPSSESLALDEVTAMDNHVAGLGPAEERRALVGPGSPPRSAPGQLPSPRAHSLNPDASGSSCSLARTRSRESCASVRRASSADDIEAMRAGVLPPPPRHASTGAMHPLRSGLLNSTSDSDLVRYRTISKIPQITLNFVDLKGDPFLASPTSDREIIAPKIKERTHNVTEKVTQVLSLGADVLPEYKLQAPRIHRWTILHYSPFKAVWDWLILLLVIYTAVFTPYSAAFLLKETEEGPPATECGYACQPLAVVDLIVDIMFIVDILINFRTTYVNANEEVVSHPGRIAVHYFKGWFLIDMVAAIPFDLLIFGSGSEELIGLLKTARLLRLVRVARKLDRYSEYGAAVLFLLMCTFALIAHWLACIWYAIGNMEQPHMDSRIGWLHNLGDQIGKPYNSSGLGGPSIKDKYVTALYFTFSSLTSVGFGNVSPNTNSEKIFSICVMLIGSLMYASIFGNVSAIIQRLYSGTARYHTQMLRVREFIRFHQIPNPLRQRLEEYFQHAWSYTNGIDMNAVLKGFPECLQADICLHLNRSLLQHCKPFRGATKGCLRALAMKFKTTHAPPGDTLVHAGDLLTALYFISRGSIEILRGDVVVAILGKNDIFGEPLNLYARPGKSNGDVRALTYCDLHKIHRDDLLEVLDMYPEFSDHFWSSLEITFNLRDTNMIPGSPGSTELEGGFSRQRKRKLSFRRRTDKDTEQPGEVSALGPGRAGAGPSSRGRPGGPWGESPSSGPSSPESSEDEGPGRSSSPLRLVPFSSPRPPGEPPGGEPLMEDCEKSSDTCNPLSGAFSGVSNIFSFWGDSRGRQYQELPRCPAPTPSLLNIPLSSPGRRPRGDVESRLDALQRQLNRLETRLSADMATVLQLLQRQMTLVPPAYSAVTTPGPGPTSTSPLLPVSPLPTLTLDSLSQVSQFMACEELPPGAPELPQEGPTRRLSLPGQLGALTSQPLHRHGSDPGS
UniProt P08684, whole entry: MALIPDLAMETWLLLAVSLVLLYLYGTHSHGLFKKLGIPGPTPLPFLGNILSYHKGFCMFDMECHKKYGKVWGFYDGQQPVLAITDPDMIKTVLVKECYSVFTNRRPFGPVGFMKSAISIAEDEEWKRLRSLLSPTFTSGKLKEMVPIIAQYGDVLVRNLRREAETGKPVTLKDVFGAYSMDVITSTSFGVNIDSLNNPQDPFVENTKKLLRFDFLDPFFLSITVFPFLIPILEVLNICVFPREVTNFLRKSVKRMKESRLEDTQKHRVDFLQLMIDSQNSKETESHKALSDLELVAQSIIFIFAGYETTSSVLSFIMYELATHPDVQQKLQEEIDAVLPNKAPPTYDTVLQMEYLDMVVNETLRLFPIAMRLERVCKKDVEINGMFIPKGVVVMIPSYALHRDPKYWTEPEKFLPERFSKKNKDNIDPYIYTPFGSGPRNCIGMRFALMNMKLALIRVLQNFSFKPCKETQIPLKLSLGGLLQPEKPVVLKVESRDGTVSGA
UniProt P05177, whole entry: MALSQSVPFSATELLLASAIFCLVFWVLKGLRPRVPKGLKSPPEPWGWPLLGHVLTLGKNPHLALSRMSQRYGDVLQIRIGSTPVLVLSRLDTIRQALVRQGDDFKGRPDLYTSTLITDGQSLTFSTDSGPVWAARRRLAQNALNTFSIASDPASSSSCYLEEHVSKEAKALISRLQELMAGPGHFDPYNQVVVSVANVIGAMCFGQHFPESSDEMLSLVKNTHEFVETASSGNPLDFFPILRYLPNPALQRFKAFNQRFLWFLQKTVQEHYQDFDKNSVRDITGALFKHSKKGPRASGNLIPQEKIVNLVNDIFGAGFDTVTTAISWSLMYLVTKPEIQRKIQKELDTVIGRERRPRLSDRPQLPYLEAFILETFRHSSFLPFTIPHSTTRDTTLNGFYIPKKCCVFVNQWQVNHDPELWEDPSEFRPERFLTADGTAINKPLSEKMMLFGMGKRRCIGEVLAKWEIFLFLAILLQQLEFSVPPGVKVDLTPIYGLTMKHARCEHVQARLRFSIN

Tests used:
hP2Y14R = molecular target: T1, hP2Y14R (Homo sapiens, UniProt Q15391); assay: Inhibition of fluorescent antagonist binding in whole hP2Y14R-expressing CHO cells (flow cytometry)
T1 construct: expressed in transfected cells; host or cells: CHO cells
T1 sequence (Q15391 1-338): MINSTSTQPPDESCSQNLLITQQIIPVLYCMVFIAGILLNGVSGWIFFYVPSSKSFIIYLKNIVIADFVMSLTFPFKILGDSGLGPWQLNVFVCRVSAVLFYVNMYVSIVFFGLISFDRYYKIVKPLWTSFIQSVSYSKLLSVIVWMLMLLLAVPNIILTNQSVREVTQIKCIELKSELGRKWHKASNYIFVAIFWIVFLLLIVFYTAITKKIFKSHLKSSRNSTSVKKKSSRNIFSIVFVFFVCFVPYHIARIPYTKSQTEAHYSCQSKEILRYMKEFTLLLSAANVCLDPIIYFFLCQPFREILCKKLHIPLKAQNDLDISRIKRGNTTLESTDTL

[1] = Table 7; Jung et al. 2020; cited from earlier work
hERG = hERG (Homo sapiens, UniProt Q12809); conditions: fluorescent method; Table 7; Jung et al. 2020; cited from earlier work
[2] = rat; Table 7; Jung et al. 2020; cited from earlier work
CYP3A4 = CYP3A4 (Homo sapiens, UniProt P08684); conditions: Table 7; Jung et al. 2020; cited from earlier work
[3] = Table 7; Jung et al. 2020; cited from earlier work; remark: listed apart in the source
CYP1A2 = CYP1A2 (Homo sapiens, UniProt P05177); conditions: Table 7; Jung et al. 2020; cited from earlier work
[4] = Table 1, fluorescent antagonist 2, hP2Y14R-CHO cells, 3-4 determinations, read-out: IC50, hP2Y14R (μM, mean ± SEM)

For `O=C(O)c1cc(-c2ccc(C3CCNC3)cc2)c2ccc(-c3ccc(C(F)(F)F)cc3)cc2c1` (racemic) [Compound 105, 4-(4-(Pyrrolidin-3-yl)phenyl)-7-(4-(trifluoromethyl)phenyl)-2-naphthoic acid], which IC50 (hP2Y14R) is on record?
Its IC50 is 0.0315 ± 0.0042 µM.

For `O=C(O)c1cc(-c2ccc(C34CCN(CC3)CC4)cc2)c2ccc(-c3ccc(C(F)(F)F)cc3)cc2c1` [Compound 4], which “Simulated intestinal fluid (% remaining at 120 min)” value [1] is on record?
Its value is 99.7%.

And the IC50 (hERG)?
Its IC50 is 16.4 µM.

And the “Plasma stability (% remaining at 120 min)” value [2]?
The value was 79.9%.

What about the IC50 (CYP3A4) of the same compound?
The IC50 was 3.29 µM.

And the “Simulated gastric fluid (% remaining at 120 min)” value [3]?
The value was 74.2%.

What about the IC50 (CYP1A2) of the same compound?
Its IC50 is 8.69 µM.

For `O=C(O)c1cc(-c2ccc(-c3nn[nH]n3)cc2)cc(-n2cc(-c3ccc(C(F)(F)F)cc3)nn2)c1` [Compound 31, 4′-(2H-Tetrazol-5-yl)-5-(4-(4-(trifluoromethyl)phenyl)-1H-1,2,3-triazol-1-yl)-[1,1′-biphenyl]-3-carboxylic acid], which IC50 (hP2Y14R; [4]) is on record?
Its IC50 is 0.895 ± 0.122 µM.

With `O=C(O)c1cc(-c2ccc(C3CCNCC3)cc2)nc(-n2cc(-c3ccc(C(F)(F)F)cc3)nn2)c1` [Compound 35, 2-(4-(Piperidin-4-yl)phenyl)-6-(4-(4-(trifluoromethyl)phenyl)-1H-1,2,3-triazol-1-yl)isonicotinic acid] as the compound, how does the IC50 (hP2Y14R; [4]) read?
Its IC50 is 4.9 ± 0.54 µM.

For `O=C(O)c1cc(-n2cc(-c3ccc(C(F)(F)F)cc3)nn2)cc(-c2ccc(C3CCNCC3)cc2)n1` [Compound 36, 6-(4-(Piperidin-4-yl)phenyl)-4-(4-(4-(trifluoromethyl)phenyl)-1H-1,2,3-triazol-1-yl)picolinic acid], which IC50 (hP2Y14R; [4]) is on record?
The IC50 was 2.92 ± 0.31 µM.

With `O=C(O)c1cc(-c2ccc(C3=CC4CCC(C3)N4)cc2)c2ccc(-c3ccc(C(F)(F)F)cc3)cc2c1` (centres unmarked) [Compound 128, 4-(4-(8-Azabicyclo[3.2.1]oct-2-en-3-yl)phenyl)-7-(4-(trifluoromethyl)phenyl)-2-naphthoic acid] as the compound, how does the IC50 (hP2Y14R; Table 2, whole hP2Y14R-CHO cells, 20 nM fluorescent antagonist 3, mean+SEM, n = 3-6, read-out: IC50) read?
The IC50 was 0.0349 ± 0.0038 µM.

Like-named read-outs stand apart in the source and are kept apart here.
